Target: T1, IL-23R (Homo sapiens, UniProt Q5VWK5)
T1 construct: HEK293 cells containing IL-23R, IL-12RP31 and a firefly luciferase reporter gene driven by a STAT-inducible promoter (Promega); host or cells: HEK293
T1 sequence (Q5VWK5 24-629): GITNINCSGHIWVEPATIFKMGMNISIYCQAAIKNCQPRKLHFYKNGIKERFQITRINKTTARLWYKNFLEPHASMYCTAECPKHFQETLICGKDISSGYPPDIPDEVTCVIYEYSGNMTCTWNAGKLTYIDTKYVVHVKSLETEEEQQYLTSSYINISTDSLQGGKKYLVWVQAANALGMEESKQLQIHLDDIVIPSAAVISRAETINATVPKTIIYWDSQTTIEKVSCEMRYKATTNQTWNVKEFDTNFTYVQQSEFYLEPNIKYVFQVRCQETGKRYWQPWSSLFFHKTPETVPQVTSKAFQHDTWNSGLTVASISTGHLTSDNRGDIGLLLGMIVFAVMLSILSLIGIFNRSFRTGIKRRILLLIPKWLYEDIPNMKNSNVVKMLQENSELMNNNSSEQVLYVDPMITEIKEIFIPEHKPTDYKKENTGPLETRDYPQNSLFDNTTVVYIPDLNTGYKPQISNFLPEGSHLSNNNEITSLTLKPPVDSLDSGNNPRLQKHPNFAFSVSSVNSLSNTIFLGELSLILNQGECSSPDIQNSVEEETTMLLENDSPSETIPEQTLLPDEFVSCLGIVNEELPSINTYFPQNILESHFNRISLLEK
Experiment: IL23R Reporter Assay
Format: cell-based
Details: HEK293 cells containing IL-23R, IL-12Rβ1 and STAT-inducible firefly luciferase reporter; 10 ng/mL IL-23 (EC90); 5 h at 37° C.; read-out: IC50
Source text: IL-23 binding to IL-23 receptors results in the activation of the Signal Transducer and Activator of Transcription 3 (STAT3) by phosphorylation and downstream signaling events. Accordingly. the ability of the inhibitors described herein to block IL-23 action can be assessed by monitoring the status of STAT3 activation in response to IL-23. This may be accomplished in reporter cell assays or in intact cells such as peripheral blood mononuclear cells (PBMCs).
Compounds were serially diluted in 100% (v/v) DMSO) and plated using an Echo acoustic dispenser (Labcyte) into 1536-well non-treated black assay plates (Corning #9146). 3 µL of HEK293 cells containing IL-23R, IL-12RP31 and a firefly luciferase reporter gene driven by a STAT-inducible promoter (Promega) were added to the plates (4000 cells/well), followed by 3 μL of 10 ng/mL IL-23 (equivalent to EC90 concentration). After 5 h at 37° C., 5% CO2, 95% relative humidity, cells were placed at 20° C. and treated with BioGlo reagent (Promega) according to the Manufacturer's instructions. Luminescence was measured on a Pherastar FSX (BMG LabTech). The data, provided in Tables 5a and 5b, were normalized to IL-23 treatment (0% inhibition) and 30 μM of control inhibitor (100% inhibition), and IC50 values were determined using a 4-parameter Hill equation.

Compound	IC50
CC(=O)NCCCC[C@@H]1NC(=O)[C@H](Cc2c[nH]c3c(C)cccc23)NC(=O)[C@H]([C@@H](C)O)NC(=O)[C@H](CC(N)=O)NC(=O)[C@@H](NC(=O)[C@@H](CCCNC(=N)N)NC(C)=O)C(C)(C)SSC(C)(C)[C@@H](C(=O)N[C@@H](Cc2ccc(OCCN)cc2)C(=O)N[C@@H](Cc2ccc3ccccc3c2)C(=O)NC2(C(=O)N[C@@H](CCCCNC(=O)COCCOCCNC(=O)COCCOCCNC(=O)[C@H]3CCCN3C(=O)[C@H]3CCCN3C(=O)[C@H]3CCCN3C(=O)CCCCCCCCCCCCCCCCC(=O)O)C(=O)N[C@@H](CC(N)=O)C(=O)N[C@@H](Cc3cccnc3)C(=O)N(C)CC(N)=O)CCOCC2)NC1=O [Example 66, MeCO-r-Pen*-N-T-7MeW-K(Ac)-Pen*-AEF-2Nal-THP-K(PEG2PEG2pppC18OH)-N-3Pya-Sar-CONH2]	0.18 nM
CCCCCCCCCCCCCCCC(=O)N[C@@H](CCC(=O)NCCCC[C@@H](NC(C)=O)C(=O)N[C@@H]1C(=O)N[C@@H](CC(N)=O)C(=O)N[C@@H]([C@@H](C)O)C(=O)N[C@@H](Cc2c[nH]c3c(C)cccc23)C(=O)N[C@@H](CCCCNC(C)=O)C(=O)N[C@H](C(=O)N[C@@H](Cc2ccc(OCCN)cc2)C(=O)N[C@@H](Cc2ccc3ccccc3c2)C(=O)NC2(C(=O)N[C@@H](CCCCNC(C)=O)C(=O)N[C@@H](CC(N)=O)C(=O)N[C@@H](Cc3cccnc3)C(=O)N(C)CC(N)=O)CCOCC2)C(C)(C)SSC1(C)C)C(=O)O [Example 67, MeCO-k(gEC16)-Pen*-N-T-7MeW-K(Ac)-Pen*-AEF-2Nal-THP-K(Ac)-N-3Pya-Sar-CONH2]	0.035 nM
CCCCCCCCCCCCCCCCCC(=O)N[C@@H](CCC(=O)NCCCC[C@@H]1NC(=O)[C@@H](NC(=O)[C@@H](CCCNC(=N)N)NC(C)=O)C(C)(C)SSC(C)(C)[C@@H](C(=O)N[C@@H](Cc2ccc(OCCN)cc2)C(=O)N[C@@H](Cc2ccc3ccccc3c2)C(=O)NC2(C(=O)N[C@@H](CCCCNC(C)=O)C(=O)N[C@@H](CC(N)=O)C(=O)N[C@@H](Cc3cccnc3)C(=O)N(C)CC(N)=O)CCOCC2)NC(=O)[C@H](CCCCNC(C)=O)NC(=O)[C@H](Cc2c[nH]c3c(C)cccc23)NC(=O)[C@H]([C@@H](C)O)NC1=O)C(=O)O [Example 70, MeCO-r-Pen*-K(gEC18)-T-7MeW-K(Ac)-Pen*-AEF-2Nal-THP-K(Ac)-N-3Pya-Sar-CONH2]	0.23 nM
CC(=O)NCCCC[C@@H]1NC(=O)[C@H](Cc2c[nH]c3c(C)cccc23)NC(=O)[C@H]([C@@H](C)O)NC(=O)[C@H](CCCCNC(=O)COCCOCCNC(=O)COCCOCCNC(=O)CC[C@H](NC(=O)[C@H]2CC[C@H](CNC(=O)CCCCCCCCCCCCCCCCC(=O)O)CC2)C(=O)O)NC(=O)[C@@H](NC(C)=O)C(C)(C)SSC(C)(C)[C@@H](C(=O)N[C@@H](Cc2ccc(OCCN)cc2)C(=O)N[C@@H](Cc2ccc3ccccc3c2)C(=O)NC2(C(=O)N[C@@H](CCCCNC(C)=O)C(=O)N[C@@H](CC(N)=O)C(=O)N[C@@H](Cc3cccnc3)C(=O)N(C)CC(N)=O)CCOCC2)NC1=O [Example 73, MeCO-Pen*-K(PEG2PEG2gETrxC18OH)-T-7MeW-K(Ac)-Pen*-AEF-2Nal-THP-K(Ac)-N-3Pya-Sar-CONH2]	0.094 nM
CC(=O)NCCCC[C@@H]1NC(=O)[C@H](Cc2c[nH]c3c(C)cccc23)NC(=O)[C@H]([C@@H](C)O)NC(=O)[C@H](CCCCNC(=O)COCCOCCNC(=O)COCCOCCNC(=O)CC[C@H](NC(=O)[C@H]2CC[C@H](CNC(=O)CCCCCCCCCCCCCCCCCCC(=O)O)CC2)C(=O)O)NC(=O)[C@@H](NC(C)=O)C(C)(C)SSC(C)(C)[C@@H](C(=O)N[C@@H](Cc2ccc(OCCN)cc2)C(=O)N[C@@H](Cc2ccc3ccccc3c2)C(=O)NC2(C(=O)N[C@@H](CCCCNC(C)=O)C(=O)N[C@@H](CC(N)=O)C(=O)N[C@@H](Cc3cccnc3)C(=O)N(C)CC(N)=O)CCOCC2)NC1=O [Example 74, MeCO-Pen*-K(PEG2PEG2gETrxC20OH)-T-7MeW-K(Ac)-Pen*-AEF-2Nal-THP-K(Ac)-N-3Pya-Sar-CONH2]	0.17 nM
CCCCCCCCCCCCCCCCCC(=O)N[C@@H](CCC(=O)NCCOCCOCC(=O)NCCOCCOCC(=O)NCCCC[C@@H]1NC(=O)[C@@H](NC(C)=O)C(C)(C)SSC(C)(C)[C@@H](C(=O)N[C@@H](Cc2ccc(OCCN)cc2)C(=O)N[C@@H](Cc2ccc3ccccc3c2)C(=O)NC2(C(=O)N[C@@H](CCCCNC(C)=O)C(=O)N[C@@H](CC(N)=O)C(=O)N[C@@H](Cc3cccnc3)C(=O)N(C)CC(N)=O)CCOCC2)NC(=O)[C@H](CCCCNC(C)=O)NC(=O)[C@H](Cc2c[nH]c3c(C)cccc23)NC(=O)[C@H]([C@@H](C)O)NC1=O)C(=O)O [Example 84, MeCO-Pen*-K(PEG2PEG2gEC18)-T-7MeW-K(Ac)-Pen*-AEF-2Nal-THP-K(Ac)-N-3Pya-Sar-CONH2]	0.046 nM
CC(=O)NCCCC[C@@H]1NC(=O)[C@H](Cc2c[nH]c3c(C)cccc23)NC(=O)[C@H]([C@@H](C)O)NC(=O)[C@H](CCCCNC(=O)COCCOCCNC(=O)COCCOCCNC(=O)CC[C@H](NC(=O)CCCCCCCCCCCCCCC(=O)O)C(=O)O)NC(=O)[C@@H](NC(C)=O)C(C)(C)SSC(C)(C)[C@@H](C(=O)N[C@@H](Cc2ccc(OCCN)cc2)C(=O)N[C@@H](Cc2ccc3ccccc3c2)C(=O)NC2(C(=O)N[C@@H](CCCCNC(C)=O)C(=O)N[C@@H](CC(N)=O)C(=O)N[C@@H](Cc3cccnc3)C(=O)N(C)CC(N)=O)CCOCC2)NC1=O [Example 85, MeCO-Pen*-K(PEG2PEG2gEC16OH)-T-7MeW-K(Ac)-Pen*-AEF-2Nal-THP-K(Ac)-N-3Pya-Sar-CONH2]	0.031 nM
CC(=O)NCCCC[C@@H]1NC(=O)[C@H](Cc2c[nH]c3c(C)cccc23)NC(=O)[C@H]([C@@H](C)O)NC(=O)[C@H](CC(N)=O)NC(=O)[C@@H](NC(C)=O)C(C)(C)SSC(C)(C)[C@@H](C(=O)N[C@@H](Cc2ccc(OCCN)cc2)C(=O)N[C@@H](Cc2ccc3ccccc3c2)C(=O)NC2(C(=O)N[C@@H](CCCCNC(=O)COCCOCCNC(=O)COCCOCCNC(=O)[C@H]3CC[C@H](CNC(=O)CC[C@H](NC(=O)CCCCCCCCCCCCCCCCC(=O)O)C(=O)O)CC3)C(=O)N[C@@H](CC(N)=O)C(=O)N[C@@H](Cc3cccnc3)C(=O)N(C)CC(N)=O)CCOCC2)NC1=O [Example 90, MeCO-Pen*-N-T-7MeW-K(Ac)-Pen*-AEF-2Nal-THP-K(PEG2PEG2TrxgEC18OH)-N-3Pya-Sar-CONH2]	0.12 nM
CC(=O)NCCCC[C@@H]1NC(=O)[C@H](Cc2c[nH]c3c(C)cccc23)NC(=O)[C@H]([C@@H](C)O)NC(=O)[C@H](CC(N)=O)NC(=O)[C@@H](NC(C)=O)C(C)(C)SSC(C)(C)[C@@H](C(=O)N[C@@H](Cc2ccc(OCCN)cc2)C(=O)N[C@@H](Cc2ccc3ccccc3c2)C(=O)NC2(C(=O)N[C@@H](CCCCNC(=O)COCCOCCNC(=O)COCCOCCNC(=O)[C@H]3CC[C@H](CNC(=O)CC[C@H](NC(=O)CCCCCCCCCCCCCCCCCCC(=O)O)C(=O)O)CC3)C(=O)N[C@@H](CC(N)=O)C(=O)N[C@@H](Cc3cccnc3)C(=O)N(C)CC(N)=O)CCOCC2)NC1=O [Example 92, MeCO-Pen*-N-T-7MeW-K(Ac)-Pen*-AEF-2Nal-THP-K(PEG2PEG2TrxgEC20OH)-N-3Pya-Sar-CONH2]	0.18 nM
CCCCCCCCCCCCCCCC(=O)N[C@@H](CCC(=O)NCCCC[C@H](NC(=O)C1(NC(=O)[C@H](Cc2ccc3ccccc3c2)NC(=O)[C@H](Cc2ccc(OCCN)cc2)NC(=O)[C@H]2NC(=O)[C@H](CCCCNC(C)=O)NC(=O)[C@H](Cc3c[nH]c4c(C)cccc34)NC(=O)[C@H]([C@@H](C)O)NC(=O)[C@H](CC(N)=O)NC(=O)[C@@H](NC(=O)[C@H](CCCCNC(=O)COCCOCCNC(=O)COCCOCCNC(=O)CC[C@H](NC(=O)CCCCCCCCC(=O)O)C(=O)O)NC(C)=O)C(C)(C)SSC2(C)C)CCOCC1)C(=O)N[C@@H](CC(N)=O)C(=O)N[C@@H](Cc1cccnc1)C(=O)N(C)CC(N)=O)C(=O)O [Example 93, MeCO-K(PEG2PEG2gEC10OH)-Pen*-N-T-7MeW-K(Ac)-Pen*-AEF-2Nal-THP-K(gEC16)-N-3Pya-Sar-CONH2]	0.12 nM

Source: US12478617B2, “Lipidated peptide inhibitors of interleukin-23 receptor” (JANSSEN BIOTECH, INC., priority 2021, dated 2025)
